What was measured:
[1] = Aqueous stability by 1H NMR (DMSO-D6/D2O, 37 °C); assay type: physicochemical; settings: DMSO-D6 in D2O
Experimental: A common step in the mechanism of action for most metal-based drugs is ligand exchange around the metal center. This promotes the coordination of the complex to the penultimate biological target, eliciting the desired response. […] Therefore, to evaluate the relative stability of the prepared complexes, ^1H NMR studies were performed. Following complete dissolution of the complexes in deuterated DMSO, dilution using D2O to a final DMSO concentration of 25% provided aqueous samples that were measured following prolonged incubation at 37 °C.
For the majority of the complexes, new signals emerged in close proximity to those of the parent complex, even without any incubation. […] A previously study monitoring ligand exchange for RuB in the presence of several proteins saw that neither the arene ring nor the 2,2-bipyridine ligands were lost, but rather the labile monodentate chloride ligand was replaced.

[2] = test system: HSA; settings: cited from earlier work

Substance | DMSO necessary to maintain solubility [1] [%] | log K (binding to HSA) [2]
[Ru(η^6-p-cymene)(4,4′-di-tert-butyl-2,2′-bipyridine)Cl]PF6 [RuBtB] | 75 | –
indomethacine | – | 5.31

From paper PMC12024814, “Ruthenium(II)–Arene Complexes with a 2,2′-Bipyridine Ligand as Anti-Aβ Agents” (Biomolecules, 2025)
